Source: patent publication US20240066045A1, “SEMICARBAZONE-BASED SAPONIN CONJUGATE” (priority 2020, published 2024)

Columns and labels:
Assay type in all cases: cell-based
HSP27 mRNA in A431 cells = assay: HSP27 gene silencing (HSP27 mRNA expression, qPCR); details: A431 (EGFR++/HER2+/−); conjugate titrated + 50 pM Trastuzumab-HSP27BNA; read-out: IC50 targeted HSP27 gene silencing
Source text: RNA from cells was isolated and analysed according to standard protocols (Biorad).

[1] = test system: HeLa cells (EGFR+/−/CD71+); assay: EGFR/CD71 targeted cell killing: antibody-saponin conjugate titrated on 10 pM CD71mab-saporin
Description: Cell viability was determined by an MTS-assay, performed according to the manufacturer's instruction (CellTiter 96® AQueous One Solution Cell Proliferation Assay, Promega). Briefly, the MTS solution was diluted 20× in DMEM without phenol red (PAN-Biotech GmbH) supplemented with 10% FBS (PAN-Biotech GmbH). The cells were washed once with 200 μL PBS per well, after which 100 μL diluted MTS solution was added per well. The plate was incubated for approximately 20-30 minutes at 37° C. Subsequently, the optical density at 492 nm was measured on a Thermo Scientific Multiskan FC plate reader (Thermo Scientific).
When EGFR expression is absent (in A2058 cells), effective SO1861 concentrations are not reached (i.e., below threshold) to induce endosomal escape and cytoplasmic delivery of the protein toxin.

[2] = test system: SK-BR-3 cells (HER2++/CD71+); assay: HER2/CD71 targeted cell killing: antibody-saponin conjugate titrated on 10 pM CD71mab-saporin

Cetuximab-(SC-SO1861)^4: SO1861-SC-Mal conjugated via cysteine residues to Cetuximab, DAR 4
IC50 (HSP27 mRNA in A431 cells): 0.5 nM | IC50 [1]: 500 nM

Trastuzumab-(SC-SO1861)^4: SO1861-SC-Mal conjugated via cysteine residues to Trastuzumab, DAR 4
activity improved compared to Trastuzumab-(EMCH-SO1861)^4 [2]: 5 fold

Cetuximab-(EMCH-SO1861)^4: SO1861-EMCH conjugated to Cetuximab at DAR 4 [reference compound]
IC50 (HSP27 mRNA in A431 cells): 0.5 nM
